Experimental data: article PMC7861561 (Current Research in Structural Biology, 2020)
Positions count from the first letter of the chain named.

Key:
Assay in all cases: biochemical
[1] = target: T1, BRPF1 bromodomain K81A mutant (Homo sapiens, UniProt P55201, K706A); assay type: binding
T1 sequence (P55201 629-742 K706A): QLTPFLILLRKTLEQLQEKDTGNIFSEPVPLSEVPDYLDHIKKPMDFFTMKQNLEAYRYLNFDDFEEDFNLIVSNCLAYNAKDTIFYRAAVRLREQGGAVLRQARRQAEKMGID

[2] = target: T2, BRPF1 bromodomain E36A mutant (Homo sapiens, UniProt P55201, E661A); assay type: binding
T2 sequence (P55201 629-742 E661A): T1 sequence (P55201 629-742 K706A) with E33A, A78K

[3] = target: T3, BRPF1 bromodomain T24A mutant (Homo sapiens, UniProt P55201, T649A); assay type: binding
T3 sequence (P55201 629-742 T649A): T1 sequence (P55201 629-742 K706A) with T21A, A78K

[4] = target: BRPF1 bromodomain N26A mutant (Homo sapiens, UniProt P55201, N651A)
[5] = target: T4, BRPF1 bromodomain E30A mutant (Homo sapiens, UniProt P55201, E655A); assay type: binding
T4 sequence (P55201 629-742 E655A): T1 sequence (P55201 629-742 K706A) with E27A, A78K

BRPF1 bromodomain = target: T5, BRPF1 bromodomain (Homo sapiens, UniProt P55201); assay type: binding; settings: SD
T5 sequence (P55201 629-742): T1 sequence (P55201 629-742 K706A) with A78K

[6] = target: T6, BRPF1 bromodomain R91A mutant (Homo sapiens, UniProt P55201, R716A); assay type: binding
T6 sequence (P55201 629-742 R716A): T1 sequence (P55201 629-742 K706A) with A78K, R88A

Row | Compound | Kd [1] [µM] | Kd [2] [µM] | Kd [3] [µM] | Kd [4] [µM] | Kd [5] [µM] | Kd (BRPF1 bromodomain) [µM] | Kd [6] [µM]
1 | CC(=O)NCCCC[C@H](NC(=O)CNC(=O)[C@H](CCCNC(=N)N)NC(=O)CNC(=O)[C@@H](N)CO)C(=O)NCC(=O)NCC(=O)N[C@@H](CCCCN)C(=O)NCC(=O)N[C@@H](CC(C)C)C(=O)O [H4K5ac (1–10)] | 59.9 | 51.4 | 28.9 | 44.1 | 79.4 | 57.6 ± 6 | 37.3
2 | CC(=O)NCCCC[C@H](NC(=O)CNC(=O)CNC(=O)[C@H](CCCCNC(C)=O)NC(=O)CNC(=O)[C@H](CCCNC(=N)N)NC(=O)CNC(=O)[C@@H](N)CO)C(=O)NCC(=O)N[C@@H](CC(C)C)C(=O)O [H4K5acK8ac (1–10)] | 45.7 | 43.1 | 99.4 | 34.5 | 27.2 | 27.7 ± 5.2 | 21.5
3 | CC(=O)NCCCC[C@H](NC(=O)CNC(=O)CNC(=O)[C@H](CCCCN)NC(=O)CNC(=O)[C@H](CCCNC(=N)N)NC(=O)CNC(=O)[C@@H](N)CO)C(=O)NCC(=O)N[C@@H](CC(C)C)C(=O)O [H4K8ac (1–10)] |  |  |  |  |  | 189 ± 36.6 | 
4 | CC(=O)NCCCC[C@H](NC(=O)CNC(=O)[C@@H](N)CC(C)C)C(=O)NCC(=O)NCC(=O)N[C@@H](C)C(=O)N[C@@H](CCCCNC(C)=O)C(=O)N[C@@H](CCCNC(=N)N)C(=O)N[C@@H](Cc1cnc[nH]1)C(=O)N[C@@H](CCCNC(=N)N)C(=O)N[C@@H](CCCCN)C(=O)O [H4K12acK16ac (10–20)] |  |  |  |  |  | 644 ± 102 | 
